From patent publication US6780870B2, “Pyrimidine derivatives as selective inhibitors of COX-2” (SmithKline Beecham Corporation, priority 2000, dated 2004)

Chains of the proteins cited; added tags and fusions are not shown. Residues count along the entry.
UniProt P23219, 24-599: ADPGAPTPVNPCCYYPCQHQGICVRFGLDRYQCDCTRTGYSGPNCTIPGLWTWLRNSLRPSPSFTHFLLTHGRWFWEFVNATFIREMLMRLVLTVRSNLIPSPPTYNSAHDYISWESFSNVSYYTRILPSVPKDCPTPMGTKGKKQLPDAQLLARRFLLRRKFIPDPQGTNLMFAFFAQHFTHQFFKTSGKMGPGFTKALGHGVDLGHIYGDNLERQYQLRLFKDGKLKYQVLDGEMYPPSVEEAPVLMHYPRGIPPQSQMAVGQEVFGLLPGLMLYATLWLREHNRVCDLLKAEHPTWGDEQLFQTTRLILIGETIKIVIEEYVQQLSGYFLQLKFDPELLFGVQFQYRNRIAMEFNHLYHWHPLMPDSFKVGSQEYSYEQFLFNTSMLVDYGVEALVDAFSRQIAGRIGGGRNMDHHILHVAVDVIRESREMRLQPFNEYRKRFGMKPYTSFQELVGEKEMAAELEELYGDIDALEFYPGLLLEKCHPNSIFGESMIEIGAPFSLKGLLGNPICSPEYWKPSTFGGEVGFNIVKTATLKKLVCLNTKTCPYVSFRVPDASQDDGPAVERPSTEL

Biological target: T1, human COX-1 (Homo sapiens, UniProt P23219)
T1 construct: expressed in transfected cells
Assay: Inhibition of PGE2 release in COS cells stably transfected with human COX-1
Assay type: cell-based
Details: COS cells stably transfected with cDNA for human COX-1; PGE2 release by enzyme immunoassay; 1 hour preincubation; 30 μM arachidonic acid, 15 minutes
Description: Inhibitory activity against human COX-1 and COX-2 was assessed in COS cells which had been stably transfected with cDNA for human COX-1 and human COX-2. 24 Hours prior to experiment, COS cells were transferred from the 175 cm^2 flasks in which they were grown, onto 24-well cell culture plates using the following procedure. The incubation medium (Dulbecco's modified eagles medium (DMEM) supplemented with heat-inactivated foetal calf serum (10% v/v), penicillin (100 IU/ml), streptomycin (100 μg/ml) and geneticin (600 μg/ml)) was removed from a flask of confluent cells (1 flask at confluency contains approximately 1×10^7 cells). 10 ml of phosphate buffered saline (PBS) was added to the flask to wash the cells. Having discarded the PBS, cells were then rinsed in 10 ml trypsin for 20 seconds, after which the trypsin was removed and the flask placed in an incubator (37°) for 1-2 minutes until cells became detached from the flask. The flask was then removed from the incubator and cells resuspended in 10 ml of fresh incubation medium. […]
Following the overnight incubation, the incubation medium was completely removed from the 24-well cell culture plates and replaced with 250 μl fresh DMEM (37° C.). […] The selectivity ratio of inhibition of COX-1 versus COX-2 was calculated by comparing respective IC50 values.

IC50: > 100 µM
Structure (SMILES): CS(=O)(=O)c1ccc(-c2cc(C(F)(F)F)nc(NCc3ccc(F)cc3)n2)cc1 [Example 15, N-(4-fluorobenzyl)-4-[4-(methylsulfonyl)phenyl]-6-(trifluoromethyl)pyrimidin-2-amine]
